The list shows a part of the results, in another mix than the full data. Some tests of the compounds listed are not included; inactive here does not mean inactive elsewhere. Active and inactive are the calls of the source. No stated cut-off is given here; in the data, active means inhibition above about 36%; inactive means the rest.
target: Serine protease HTRA1 (Homo sapiens) (UniProt Q92743); assay: HTRA1 serine protease inhibitors, primary screen, biochemical, fluorescence polarization, HTS (AID 504803); settings: recombinant HTRA1, FP-rhodamine activity-based probe, at 5.96 µM, hits give high values;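 further: 0% = enzyme with DMSO and 100% = wells lacking enzyme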

Chains of the proteins cited; added tags and fusions are not shown.
UniProt Q92743, whole entry: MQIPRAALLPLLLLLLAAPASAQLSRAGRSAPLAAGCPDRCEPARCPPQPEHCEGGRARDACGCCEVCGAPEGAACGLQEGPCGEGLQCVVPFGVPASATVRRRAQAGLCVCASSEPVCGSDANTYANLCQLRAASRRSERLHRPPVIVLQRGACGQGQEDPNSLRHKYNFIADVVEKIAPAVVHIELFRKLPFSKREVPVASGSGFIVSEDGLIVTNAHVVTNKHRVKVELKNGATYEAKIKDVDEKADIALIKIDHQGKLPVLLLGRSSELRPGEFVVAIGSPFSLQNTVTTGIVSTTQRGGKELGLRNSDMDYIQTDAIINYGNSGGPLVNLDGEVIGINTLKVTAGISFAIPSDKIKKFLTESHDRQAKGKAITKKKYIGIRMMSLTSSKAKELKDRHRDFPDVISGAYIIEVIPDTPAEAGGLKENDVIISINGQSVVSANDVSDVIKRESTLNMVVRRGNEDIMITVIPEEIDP

| SMILES | inhibition |
| --- | --- |
| CN1[C@@H]2CC[C@H]1CC(OC(=O)C(O)(c1ccccc1)c1ccccc1)C2 (stereo partly specified) | inactive: 5.84% |
| O=C(NCC1(N2CCCCC2)CCCCC1)c1cc([N+](=O)[O-])ccc1Cl | inactive: 5.02% |
| Cc1ccc(C(=O)NCC2(N3CCCCC3)CCCCC2)cc1 | inactive: -2.32% |
| COc1cc(SC)ccc1C(=O)NCC1(N(C)C)CCCCC1 | inactive: 6.89% |
| CCN(CC)CC(C)C(C)OC(=O)C(O)(c1ccccc1)c1ccccc1 (stereo unspecified) | inactive: -2.25% |
| CC(C)N1C(=O)CC2(CCN(CCOC(=O)C(O)(c3ccccc3)c3ccccc3)CC2)C1=O | inactive: -3.28% |
| CN(C)C1CCCC1OC(=O)C(O)(c1ccccc1)c1ccccc1 (stereo unspecified) | inactive: 13.2% |
| CN(C)c1ccc(C(=O)NCC2(N(C)C)CCCCC2)cc1 | inactive: 1.54% |
| Cc1ccccc1C(=O)NCC1(N2CCCCC2)CCCCC1 | inactive: 7.4% |
| COc1ccc(C(=O)NCC2(N(C)C)CCCCC2)cc1 | inactive: 6.74% |
| O=C(NCC1(N2CCCCC2)CCCCC1)c1cccc(Br)c1 | inactive: -2.28% |
| Cc1cc(C(=O)NCC2(N3CCCCC3)CCCCC2)ccc1[N+](=O)[O-] | inactive: 4.52% |
| CCN1CCCC(OC(=O)C2(O)c3ccccc3C=Cc3ccccc32)C1 (stereo unspecified) | inactive: -1% |
| O=C(NCC1(N2CCCCC2)CCCCC1)c1cc(F)c(F)cc1Cl | inactive: -3.79% |
| C=CCN1CCN(CCOC(=O)C(O)(c2ccccc2)c2ccccc2)CC1 | inactive: -1.21% |
| COc1cc(C(=O)NCC2(N(C)C)CCCCC2)c([N+](=O)[O-])cc1OC | inactive: -4.35% |
| CN(C)C1(CNC(=O)c2ccc(Br)cc2)CCCCC1 | inactive: 7.13% |
| O=C(NCC1(N2CCCCC2)CCCCC1)c1cccc(Cl)c1 | inactive: -2.01% |
| COc1ccc(Cl)cc1C(=O)NCC1(N(C)C)CCCCC1 | inactive: 5.15% |
| COc1cccc(C(=O)NCC2(N3CCCCC3)CCCCC2)c1 | inactive: 7.56% |
| O=C(OC1CN2CCC1CC2)C(CO)(c1ccccc1)c1ccccc1 (stereo unspecified) | inactive: -1.89% |
| O=C(OCCN1CCCC1)C(O)(c1ccccc1)c1ccccc1 | inactive: 0.09% |
| CC(C)Oc1ccc(C(=O)NCC2(N(C)C)CCCCC2)cc1 | inactive: 8.02% |
| CN(C)c1cccc(C(=O)NCC2(N(C)C)CCCCC2)c1 | inactive: 5.82% |
| C=C(C)C#CC(O)(C(=O)OC1CCN(C)CC1)c1ccccc1 (stereo unspecified) | inactive: 9.88% |
| COc1ccc(Br)c(C(=O)NCC2(N3CCCCC3)CCCCC2)c1 | inactive: 0.96% |
